Measured values taken from patent US10472347B2, “Aminopyrazine compounds with A2A antagonist properties” (Merck Sharp & Dohme Corp., priority 2014, dated 2019).

Molecular target: human A2a receptor (Homo sapiens, UniProt P29274)
Test: A2a competition binding assay, Scintillation Proximity technology
Conditions: membranes from HEK293 cells expressing human A2a receptor
Protocol: Binding affinities of compounds of the invention for the human A2a receptor were determined in a competition binding assay using Scintillation Proximity technology. Thus, […] from HEK293 cells expressing the human A2a receptor were incubated with a compound of the invention at concentrations ranging from 3000 nM to 0.15 nM in a reaction mixture containing also 0.5 nM of a tritiated form of 5-amino-7-[2-phenethyl]-2-(furan-2-yl)-7H-pyrazolo[4,3-e][1,2,4]triazolo[1,5-c]pyrimidine (the tritiated compound) and 100 μg of wheat germ agglutin-coated yttrium silicate SPA beads for one hour at room temperature with agitation. The beads were then allowed to settle to the bottom of the wells for 1 hr, after which the membrane-associated radioactivity was determined by scintillation counting in a TopCount microplate reader. Ki values were determined using the Cheng-Prusoff equation.
HEK293 cells expressing the human, rat, dog or monkey adenosine 2a receptor (Purchased from Perkin-Elmer # RBHA2AM400UA).
The Tritiated compound was prepared in-house by MRL Radiochemistry according to published methods.
Wheat germ agglutinin-coated yttrium silicate SPA beads (GE Healthcare #RPNQ0023). Dilute to 25 mg/ml in assay buffer. […]
A curve fitting program (i.e., Prism, Activity Base, Chemcart) is used to determine the EC50. The Ki value is calculated using the Cheng-Prusoff equation. […]

EC50 (read-out: A2a EC50, 0.5 nM tritiated ligand) [µM] | Ki (read-out: A2a Ki, Ki by Cheng-Prusoff equation) [µM] | Compound
0.0014 | – | Cc1nc(C(=O)NC2CCc3cccnc32)c(N)nc1-c1ncco1 (centres unmarked)
– | 1.91 | COC(=O)c1nc(Cl)c(-n2cccn2)nc1N
